According to publication PMC7735735, “Store-Operated Calcium Entry as a Therapeutic Target in Acute Pancreatitis: Discovery and Development of Drug-Like SOCE Inhibitors” (Journal of Medicinal Chemistry, 2020):

Test system: HEK cells
Assay: HEK cell viability after 72 h at 50 μM with or without uridine (involvement of DHODH)

With `C/C(O)=C(\C#N)C(=O)Nc1ccc(C(F)(F)F)cc1` [teriflunomide] as the compound, how does the “cell viability / cytotoxicity at 50 μM, 72 h” value read?
The value was “cytotoxic”.

What about the “reversal of cytotoxicity by uridine” value (uridine 100 μM) of the same compound?
The value was “reverted by uridine addition”.
